Data reported in BindingDB's records for doi:10.1021/ja038606l (Fujisawa Pharmaceutical, 2004).

target: T1, Adenosine deaminase (Homo sapiens, UniProt P00813)
T1 sequence (P00813 whole entry): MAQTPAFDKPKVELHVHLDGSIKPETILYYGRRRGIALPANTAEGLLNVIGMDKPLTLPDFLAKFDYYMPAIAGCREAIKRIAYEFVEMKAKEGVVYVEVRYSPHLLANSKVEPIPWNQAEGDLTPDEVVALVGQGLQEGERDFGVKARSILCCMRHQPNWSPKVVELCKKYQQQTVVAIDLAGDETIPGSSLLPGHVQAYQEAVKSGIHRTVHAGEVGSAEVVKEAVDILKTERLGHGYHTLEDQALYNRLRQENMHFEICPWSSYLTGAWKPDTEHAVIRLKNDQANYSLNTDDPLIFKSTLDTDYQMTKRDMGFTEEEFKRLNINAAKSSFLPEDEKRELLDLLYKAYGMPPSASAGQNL

Question: For `NC(N)=Nc1nc(-c2ccc(CNc3nc4ccccc4[nH]3)s2)cs1` [2-(4-{5-[(1H-1,3-benzodiazol-2-ylamino)methyl]thiophen-2-yl}-1,3-thiazol-2-yl)guanidine], which Ki is on record?
Answer: Its Ki is 1.2 µM.

Question: How did the Ki turn out when `Cn1c(CCC(=O)Nc2ccc3ccn(CC[C@H](CO)n4cnc(C(N)=O)c4)c3c2)nc2ccccc21` [1-[(2R)-1-hydroxy-4-{6-[3-(1-methyl-1H-1,3-benzodiazol-2-yl)propanamido]-1H-indol-1-yl}butan-2-yl]-1H-imidazole-4-carboxamide] was run?
Answer: Its Ki is 0.0077 µM.

Question: `NC(=O)c1cn([C@@H](CO)CCc2cccc3ccccc23)cn1` was tested. Which Ki did it give?
Answer: The Ki was 0.68 µM.
